Reference: patent US20050196808A1 (published 2005)
Non-standard residues stand in square brackets, D forms with d. No end group written: not given here. pT = C[C@@H](OP(=O)(O)O)[C@H](N)C(=O)O

T1: PoloBoxtide-optimal, MAGPMQ-S-pT-P-LNGAKK
T1 construct: Synthetic; core Met-Gln-Ser-pThr-Pro-Leu; also called optimal phosphopeptide ligand; optimal PBD phosphopeptide
T1 peptide: MAGPMQS[pT]PLNGAKK

T2: Cdc25C, mitotically phosphorylated (up-shifted) form, endogenous in nocodazole-arrested HeLa cells (human, UniProt P30307 1-473, limits assumed, extensively phosphorylated at the N-terminus in mitosis, including phosphothreonine at 130)
T2 construct: also called mitotically up-shifted form of Cdc25C; mitotically phosphorylated Cdc25C
T2 sequence (looked up): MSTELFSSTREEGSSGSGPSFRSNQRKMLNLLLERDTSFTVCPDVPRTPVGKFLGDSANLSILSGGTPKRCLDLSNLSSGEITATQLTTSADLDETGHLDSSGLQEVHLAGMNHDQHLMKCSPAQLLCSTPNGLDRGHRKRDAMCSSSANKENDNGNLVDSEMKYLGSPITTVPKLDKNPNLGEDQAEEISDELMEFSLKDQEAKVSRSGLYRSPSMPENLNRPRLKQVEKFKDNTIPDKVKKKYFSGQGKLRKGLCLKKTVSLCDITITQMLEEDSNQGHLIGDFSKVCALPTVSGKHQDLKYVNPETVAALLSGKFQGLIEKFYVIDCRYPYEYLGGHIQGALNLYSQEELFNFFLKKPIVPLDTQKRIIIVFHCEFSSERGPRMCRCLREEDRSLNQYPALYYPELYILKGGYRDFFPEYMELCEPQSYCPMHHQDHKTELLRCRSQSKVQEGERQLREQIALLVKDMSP


Key:
[1] = molecular target: T1, PoloBoxtide-optimal, …; test: isothermal titration calorimetry
[2] = molecular target: T2, Cdc25C, mitotically phosphorylated …; test: Ni2+ bead pull-down from nocodazole-arrested transfected HeLa cells, blot α-Cdc25

Row | binding result [2] | Binder | binding result [1]
1 | – | Plk1 PBD (residues 326-603) H538A/K540M (other, also called His/Lys pincer mutant) SIAPSSLDPSNRKPLTVLNKGLENPLPERPREKEEPVVRETGEVVDCHLSDMLQQLHSVNASKPSERGLVRQEEAEDPACIPIFWVSKWVDYSDKYGLGYQLCDNSVGVLFNDSTRLILYNDGDSLQYIERDGTESYLTVSSHPNSLMKKITLLKYFRNYMSEHLLKAGANITPREGDELARLPYLRTWFRTRSAIILHLSNGSVQINFFQDATMLILCPLMAAVTYIDEKRDFRTYRLSLLEEYGCCKELASRLRYARTMVDKLLSSRSASNRLKAS | no binding (tested: molar ratio about 2.7)
2 | no binding | His-Xpress-tagged Plk1 PBD (residues 326-603) H538A/K540M (other, the text speaks of the mutants in the plural without naming them there; not shown: His-Xpress tag) SIAPSSLDPSNRKPLTVLNKGLENPLPERPREKEEPVVRETGEVVDCHLSDMLQQLHSVNASKPSERGLVRQEEAEDPACIPIFWVSKWVDYSDKYGLGYQLCDNSVGVLFNDSTRLILYNDGDSLQYIERDGTESYLTVSSHPNSLMKKITLLKYFRNYMSEHLLKAGANITPREGDELARLPYLRTWFRTRSAIILHLSNGSVQINFFQDATMLILCPLMAAVTYIDEKRDFRTYRLSLLEEYGCCKELASRLRYARTMVDKLLSSRSASNRLKAS | –
3 | no binding | His-Xpress-tagged Plk1 PBD (residues 326-603) H538E/K540M (other, the text speaks of the mutants in the plural without naming them there; not shown: His-Xpress tag) SIAPSSLDPSNRKPLTVLNKGLENPLPERPREKEEPVVRETGEVVDCHLSDMLQQLHSVNASKPSERGLVRQEEAEDPACIPIFWVSKWVDYSDKYGLGYQLCDNSVGVLFNDSTRLILYNDGDSLQYIERDGTESYLTVSSHPNSLMKKITLLKYFRNYMSEHLLKAGANITPREGDELARLPYLRTWFRTRSAIILHLSNGSVQINFFQDETMLILCPLMAAVTYIDEKRDFRTYRLSLLEEYGCCKELASRLRYARTMVDKLLSSRSASNRLKAS | –
